How the values were obtained:
[1] = molecular target: TSHR IV (K244A, E247A, K250A, R255A) (human) (UniProt P16473); assay: radioligand binding; CHO cell monolayers stably expressing TSHR in 24-well plates; ~30,000 cpm 125I-TSH with increasing unlabeled bTSH, 4 h at room temperature, Hanks' buffer with 250 mM sucrose in place of NaCl, 0.25% BSA; Kd by Scatchard analysis, excluding the low affinity non-specific site; four experiments
[2] = molecular target: TSHR V (K244A, E247A, K250A, E251A, R255A) (human) (UniProt P16473); assay: as above
[3] = molecular target: wild-type human TSH receptor (hTSHR) (human) (UniProt P16473); assay: as above
[4] = molecular target: TSHR IV (K244A, E247A, K250A, R255A) (human) (UniProt P16473)
[5] = molecular target: TSHR V (K244A, E247A, K250A, E251A, R255A) (human) (UniProt P16473)
[6] = molecular target: wild-type human TSH receptor (hTSHR) (human) (UniProt P16473)

Substance “125I-TSH (from UniProt P01217 25-120; P01223 21-132) (ligand)” has a 125I-TSH bound (% of total cpm) (% of total cpm) [1] of 16.4 and a 125I-TSH bound (% of total cpm) (% of total cpm) [2] of 11.

“125I-TSH (from UniProt P01217 25-120; P01223 21-132) (ligand; other documents disagree on this pair)” showed a 125I-TSH bound (% of total cpm) (% of total cpm) [3] of 29.1.

Work on “bovine (b) TSH (from UniProt P01217 25-120; P01223 21-132) (ligand)” yielded a TSH EC50 for intracellular cAMP generation, CHO cells stably expressing the TSHR, 1 h (the paper reads the shift as partial uncoupling of binding and signalling, not lower affinity) [4] of 0.67 mU/ml, a TSH EC50 for intracellular cAMP generation, CHO cells stably expressing the TSHR, 1 h (the paper reads the shift as partial uncoupling of binding and signalling, not lower affinity) [5] of 3.2 mU/ml and a TSH EC50 for intracellular cAMP generation, CHO cells stably expressing the TSHR, 1 h [6] of 0.24 mU/ml.
